Measurements as given in US8148427B2, “Benzylamine derivative or pharmaceutically acceptable acid addition salt thereof, and use thereof for medical purposes” (Toray Industries, Inc., priority 2007, dated 2012).

Test system: female Spague-Dawley rat
Test: Effect on cardiovascular system in conscious rats
Type: in vivo
Conditions: 3 mg/kg subcutaneously, 30 minutes, relative to before administration
Experimental: This method was carried out in accordance with the literature [Experimental Methods in Pharmacology, 5th Revised Edition, p. 168, KYODO ISHO SHUPPAN CO., LTD.]
Each female Spague-Dawley rat was anesthetized with ether, and a polyethylene cannula was inserted into the left common carotid artery and fixed therein, followed by subcutaneously indwelling a cannula for drug administration. After recovery from anesthesia, the mean blood pressure and the heart rate were measured under free moving conditions. After confirming that the blood pressure became stable, the drug was administered subcutaneously, and changes in the mean blood pressure and the heart rate were observed.

## Nc1nc(CC(=O)Nc2ccc(CCNC[C@H](O)c3ccccc3)cc2)cs1 [Compound 11, reference compound]
  Change in Heart Rate: 114.5 ± 3.1 %
